Results reported in patent US20220000881A1, “TREATMENT OF EXPOSURE TO CHLORINE GAS WITH SCOPOLAMINE” (published 2022).

Tested on: Sprague-Dawley rats exposed to chlorine

CN1[C@@H]2CC(OC(=O)C(CO)c3ccccc3)C[C@H]1[C@@H]1O[C@@H]12 (some centres unmarked)
survival to 6 hours following exposure to high dose Cl2 (IM 0.15 mg/kg, 15 minutes after exposure, FIG. 1): 100% | survival to 6 hours following exposure to high dose Cl2, compared to no treatment (IM 0.15 mg/kg, IT 0.2 mg/kg or IN 0.16 mg/kg, 15 minutes after exposure, FIG. 1): improved survival | percent of subjects with tremors/seizures due to Cl2 exposure, comparison of routes (IM 0.15 mg/kg, FIG. 3): best results being obtained with IM dosing | percent of subjects with tremors/seizures due to Cl2 exposure (after scopolamine treatment (IM, IT or IN), FIG. 3): decreased | survival, hypotonia, bradycardia, ataxia/seizure activity following exposure to chlorine (general statement, following exposure to Cl2): effective at improving survival, hypotonia, bradycardia, and in minimizing ataxia/seizure activity
